Tests used:
Format in all cases: in vivo
animals [1] = assay: Unspecific protection against lethality: anoxia by CNK, survival time; conditions: survival time after CNK; DOSE 40mg/kg
animals [2] = assay: Unspecific protection against lethality: hypoxia-hypobara (decompression), survival time; conditions: survival time under decompression; DOSE 40mg/kg
Source text: (§1) It is known that the nootropic drugs, as Piracetam, as well as the phenobarbital or hydantoine have a protection on the survival time of animals.
(§2) In the intention to increase the accuracy, we have a three trials panel in order to study the effect of the new synthetized drugs.
We have chosen the hypoxia-hypobara : the decompression kills the animals, because of the lack of 02.

mouse = assay: Unspecific protection against lethality: gasping time after quick decapitation; conditions: gasping time after decapitation of mouse; DOSE 40mg/kg
Source text: as §1, §2
The second trial is the quick decapitation of mouse. The head has a typical mandibular movement, known as gasping, as searching the breathing air. The gasping time is well prolonged by the active drugs.

CCCC(C)C1(CC)C(=O)NC(=O)NC1=O (stereo not drawn) [Pentobarbital]
Active: ANOXIA BY CNK (animals [1]) | HYPOXIA HYPOBARA (animals [2]) | GASPING (mouse)

Reference: patent publication EP0089901A1, “New 2-oxo-1-pyrrolidineacetic acid esters, their methods of production and therapeutic compositions containing the same” (PRODES S.A., priority 1982, dated 1983)
